Earlier results, collected in paper PMC9268615, “Identification of Anti-Proliferative Compounds from Genista monspessulana Seeds through Covariate-Based Integration of Chemical Fingerprints and Bioactivity Datasets” (Molecules, 2022).

Key:
BV2 (mouse microglia) = settings: cited from earlier work
[1] = system: RAW 264.7 (mouse macrophages); settings: cited from earlier work

Substance: tonkinensine B
- cytotoxicity against normal BV2 vs precursors (BV2 (mouse microglia)): lower cytotoxicity
- cytotoxicity against normal RAW 264.7 vs precursors [1]: lower cytotoxicity
